Experiments:
[1] = biological target: Citron Rho-interacting kinase (Homo sapiens) (UniProt O14578); settings: Compound concentration 100.0 nM
[2] = biological target: Mitogen-activated protein kinase kinase kinase kinase 1 (Homo sapiens) (UniProt Q92918); settings: Compound concentration 100.0 nM
[3] = biological target: T1, Mitogen-activated protein kinase kinase kinase 2 (Homo sapiens) (UniProt Q9Y2U5); settings: Compound concentration 100.0 nM
T1 sequence (whole entry): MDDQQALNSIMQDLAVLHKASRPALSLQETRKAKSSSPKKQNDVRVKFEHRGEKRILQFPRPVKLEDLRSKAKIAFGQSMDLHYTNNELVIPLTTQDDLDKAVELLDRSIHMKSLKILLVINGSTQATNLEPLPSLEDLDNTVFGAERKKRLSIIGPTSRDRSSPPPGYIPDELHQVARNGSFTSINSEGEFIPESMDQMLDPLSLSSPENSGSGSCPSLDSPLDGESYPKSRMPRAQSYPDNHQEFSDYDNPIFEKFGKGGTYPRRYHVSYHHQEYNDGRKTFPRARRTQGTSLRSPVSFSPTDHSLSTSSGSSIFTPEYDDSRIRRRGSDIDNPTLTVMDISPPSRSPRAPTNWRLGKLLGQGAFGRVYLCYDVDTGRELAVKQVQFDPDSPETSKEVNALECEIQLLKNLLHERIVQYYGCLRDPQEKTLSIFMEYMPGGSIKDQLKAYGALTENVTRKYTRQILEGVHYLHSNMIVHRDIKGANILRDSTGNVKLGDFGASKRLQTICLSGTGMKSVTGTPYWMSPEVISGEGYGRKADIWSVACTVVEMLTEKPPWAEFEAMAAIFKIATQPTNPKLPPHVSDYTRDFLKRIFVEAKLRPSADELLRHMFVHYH

Chains of the proteins cited; added tags and fusions are not shown.
UniProt O14578, whole entry: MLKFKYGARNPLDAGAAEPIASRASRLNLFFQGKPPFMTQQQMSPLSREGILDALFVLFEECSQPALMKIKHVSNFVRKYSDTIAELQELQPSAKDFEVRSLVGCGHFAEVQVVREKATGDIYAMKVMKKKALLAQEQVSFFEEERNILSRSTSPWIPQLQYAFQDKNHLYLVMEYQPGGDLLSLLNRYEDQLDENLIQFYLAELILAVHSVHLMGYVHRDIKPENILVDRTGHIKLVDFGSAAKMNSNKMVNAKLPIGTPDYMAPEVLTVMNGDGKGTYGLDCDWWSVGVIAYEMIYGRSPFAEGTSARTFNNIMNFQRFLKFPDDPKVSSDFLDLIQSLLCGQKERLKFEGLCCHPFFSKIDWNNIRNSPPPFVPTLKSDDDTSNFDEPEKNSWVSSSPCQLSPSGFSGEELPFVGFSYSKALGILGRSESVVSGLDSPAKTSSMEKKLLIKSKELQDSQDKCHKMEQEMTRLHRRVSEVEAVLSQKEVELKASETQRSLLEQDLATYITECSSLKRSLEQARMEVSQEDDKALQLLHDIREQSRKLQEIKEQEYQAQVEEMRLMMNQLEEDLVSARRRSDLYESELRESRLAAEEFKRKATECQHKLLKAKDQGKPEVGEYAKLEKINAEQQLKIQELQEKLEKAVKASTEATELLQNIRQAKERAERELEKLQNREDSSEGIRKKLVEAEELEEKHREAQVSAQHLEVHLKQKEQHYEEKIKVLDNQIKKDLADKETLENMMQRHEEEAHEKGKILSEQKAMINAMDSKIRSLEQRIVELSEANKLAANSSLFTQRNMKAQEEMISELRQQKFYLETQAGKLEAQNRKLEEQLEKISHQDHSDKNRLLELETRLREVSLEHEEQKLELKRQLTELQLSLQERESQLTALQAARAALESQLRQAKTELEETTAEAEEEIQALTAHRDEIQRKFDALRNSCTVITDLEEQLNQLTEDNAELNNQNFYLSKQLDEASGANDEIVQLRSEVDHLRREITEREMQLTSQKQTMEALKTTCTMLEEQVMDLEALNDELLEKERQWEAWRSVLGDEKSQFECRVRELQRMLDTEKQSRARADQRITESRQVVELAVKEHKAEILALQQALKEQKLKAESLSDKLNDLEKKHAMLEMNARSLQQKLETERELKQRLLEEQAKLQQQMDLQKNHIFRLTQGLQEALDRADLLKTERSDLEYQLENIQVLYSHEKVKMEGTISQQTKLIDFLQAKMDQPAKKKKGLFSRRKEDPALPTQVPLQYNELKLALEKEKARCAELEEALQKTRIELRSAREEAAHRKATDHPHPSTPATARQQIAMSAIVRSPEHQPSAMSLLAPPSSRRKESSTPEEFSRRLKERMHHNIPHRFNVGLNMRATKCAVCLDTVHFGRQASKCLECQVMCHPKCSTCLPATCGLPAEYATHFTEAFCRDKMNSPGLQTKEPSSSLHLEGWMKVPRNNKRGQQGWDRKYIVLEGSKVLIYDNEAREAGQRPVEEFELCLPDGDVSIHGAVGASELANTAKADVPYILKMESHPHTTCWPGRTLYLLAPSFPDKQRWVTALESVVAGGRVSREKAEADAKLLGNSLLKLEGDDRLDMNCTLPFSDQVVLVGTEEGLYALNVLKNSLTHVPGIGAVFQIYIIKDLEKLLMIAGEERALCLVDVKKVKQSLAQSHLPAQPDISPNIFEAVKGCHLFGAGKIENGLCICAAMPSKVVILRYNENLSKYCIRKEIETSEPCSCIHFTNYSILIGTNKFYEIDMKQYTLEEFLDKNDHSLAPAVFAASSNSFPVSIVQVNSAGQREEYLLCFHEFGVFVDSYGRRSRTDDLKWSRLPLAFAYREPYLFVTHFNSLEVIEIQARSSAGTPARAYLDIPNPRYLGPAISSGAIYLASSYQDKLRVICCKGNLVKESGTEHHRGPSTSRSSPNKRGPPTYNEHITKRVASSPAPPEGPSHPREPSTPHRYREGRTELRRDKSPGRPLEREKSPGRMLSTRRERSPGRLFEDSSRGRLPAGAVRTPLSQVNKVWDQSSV
UniProt Q92918, whole entry, looked up: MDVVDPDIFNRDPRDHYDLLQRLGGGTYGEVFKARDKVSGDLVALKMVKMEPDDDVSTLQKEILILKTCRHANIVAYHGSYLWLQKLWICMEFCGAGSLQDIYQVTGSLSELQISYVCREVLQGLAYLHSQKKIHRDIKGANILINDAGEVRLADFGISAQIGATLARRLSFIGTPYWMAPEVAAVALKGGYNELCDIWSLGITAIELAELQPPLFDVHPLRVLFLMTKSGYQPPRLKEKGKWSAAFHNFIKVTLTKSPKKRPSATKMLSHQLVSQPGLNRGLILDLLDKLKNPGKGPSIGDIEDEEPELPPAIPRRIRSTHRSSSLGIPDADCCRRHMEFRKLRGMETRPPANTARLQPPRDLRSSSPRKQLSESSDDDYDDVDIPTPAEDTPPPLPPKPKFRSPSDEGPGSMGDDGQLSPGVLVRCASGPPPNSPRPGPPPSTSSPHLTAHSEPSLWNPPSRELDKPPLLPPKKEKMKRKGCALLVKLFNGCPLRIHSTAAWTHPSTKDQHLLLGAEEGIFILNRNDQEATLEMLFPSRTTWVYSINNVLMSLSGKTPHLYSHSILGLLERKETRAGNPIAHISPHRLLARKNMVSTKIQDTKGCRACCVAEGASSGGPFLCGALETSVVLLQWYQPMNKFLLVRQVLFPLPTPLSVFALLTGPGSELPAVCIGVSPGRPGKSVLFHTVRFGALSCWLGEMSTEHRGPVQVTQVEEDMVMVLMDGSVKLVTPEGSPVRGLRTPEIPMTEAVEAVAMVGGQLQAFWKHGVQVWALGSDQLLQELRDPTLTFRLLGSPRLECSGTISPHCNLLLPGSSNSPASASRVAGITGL
Phosphatidylinositol 4,5-bisphosphate 3-kinase catalytic subunit alpha isoform (Homo sapiens), P42336, UniProt P42336, whole entry H1047L: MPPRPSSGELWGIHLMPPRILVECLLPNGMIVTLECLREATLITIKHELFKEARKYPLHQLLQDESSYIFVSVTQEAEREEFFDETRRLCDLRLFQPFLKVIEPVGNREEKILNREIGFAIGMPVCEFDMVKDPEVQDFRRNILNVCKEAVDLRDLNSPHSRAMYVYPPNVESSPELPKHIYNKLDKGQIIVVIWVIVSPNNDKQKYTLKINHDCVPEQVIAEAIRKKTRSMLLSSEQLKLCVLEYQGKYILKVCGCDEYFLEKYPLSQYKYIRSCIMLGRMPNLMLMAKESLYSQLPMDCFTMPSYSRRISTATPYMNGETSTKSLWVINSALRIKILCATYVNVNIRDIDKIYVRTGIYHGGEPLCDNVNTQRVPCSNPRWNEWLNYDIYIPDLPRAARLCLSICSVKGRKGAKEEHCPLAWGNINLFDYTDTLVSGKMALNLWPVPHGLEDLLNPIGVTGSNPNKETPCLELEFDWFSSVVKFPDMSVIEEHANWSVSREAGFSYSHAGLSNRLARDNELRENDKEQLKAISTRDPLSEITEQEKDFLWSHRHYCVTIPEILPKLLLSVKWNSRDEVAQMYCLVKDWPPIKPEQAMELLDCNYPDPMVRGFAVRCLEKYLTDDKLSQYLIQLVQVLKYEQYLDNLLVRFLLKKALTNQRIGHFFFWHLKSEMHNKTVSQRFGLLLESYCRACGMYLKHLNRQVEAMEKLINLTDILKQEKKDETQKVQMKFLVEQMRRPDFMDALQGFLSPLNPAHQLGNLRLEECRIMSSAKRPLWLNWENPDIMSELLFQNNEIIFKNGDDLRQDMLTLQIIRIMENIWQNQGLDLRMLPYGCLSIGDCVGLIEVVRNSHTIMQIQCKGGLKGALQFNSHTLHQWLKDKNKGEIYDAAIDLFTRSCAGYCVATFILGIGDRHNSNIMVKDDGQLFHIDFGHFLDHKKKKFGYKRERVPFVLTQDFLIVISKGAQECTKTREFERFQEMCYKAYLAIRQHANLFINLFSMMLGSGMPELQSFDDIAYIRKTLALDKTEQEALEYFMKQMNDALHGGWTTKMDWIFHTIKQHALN

[4] = tested on: Phosphatidylinositol 4,5-bisphosphate 3-kinase catalytic subunit alpha isoform (Homo sapiens), P42336 [H1047L]; settings: Compound concentration 100.0 nM
[5] = biological target: T2, Phosphatidylinositol 5-phosphate 4-kinase type-2 gamma (Homo sapiens) (UniProt Q8TBX8); settings: Compound concentration 100.0 nM
T2 sequence (whole entry): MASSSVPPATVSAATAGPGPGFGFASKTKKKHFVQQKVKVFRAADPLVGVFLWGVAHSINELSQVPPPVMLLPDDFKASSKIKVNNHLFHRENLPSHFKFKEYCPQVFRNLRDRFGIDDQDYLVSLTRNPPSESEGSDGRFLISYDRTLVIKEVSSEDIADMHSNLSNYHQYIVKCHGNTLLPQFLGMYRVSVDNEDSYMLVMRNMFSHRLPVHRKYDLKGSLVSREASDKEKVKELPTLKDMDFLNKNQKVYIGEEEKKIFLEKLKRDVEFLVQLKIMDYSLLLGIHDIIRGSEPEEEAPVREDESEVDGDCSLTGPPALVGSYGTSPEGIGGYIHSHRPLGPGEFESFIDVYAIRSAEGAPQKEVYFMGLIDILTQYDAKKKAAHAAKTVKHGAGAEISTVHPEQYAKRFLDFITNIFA

[6] = biological target: T3, Serine/threonine-protein kinase ULK1 (Homo sapiens) (UniProt O75385); settings: Compound concentration 100.0 nM
T3 sequence (whole entry): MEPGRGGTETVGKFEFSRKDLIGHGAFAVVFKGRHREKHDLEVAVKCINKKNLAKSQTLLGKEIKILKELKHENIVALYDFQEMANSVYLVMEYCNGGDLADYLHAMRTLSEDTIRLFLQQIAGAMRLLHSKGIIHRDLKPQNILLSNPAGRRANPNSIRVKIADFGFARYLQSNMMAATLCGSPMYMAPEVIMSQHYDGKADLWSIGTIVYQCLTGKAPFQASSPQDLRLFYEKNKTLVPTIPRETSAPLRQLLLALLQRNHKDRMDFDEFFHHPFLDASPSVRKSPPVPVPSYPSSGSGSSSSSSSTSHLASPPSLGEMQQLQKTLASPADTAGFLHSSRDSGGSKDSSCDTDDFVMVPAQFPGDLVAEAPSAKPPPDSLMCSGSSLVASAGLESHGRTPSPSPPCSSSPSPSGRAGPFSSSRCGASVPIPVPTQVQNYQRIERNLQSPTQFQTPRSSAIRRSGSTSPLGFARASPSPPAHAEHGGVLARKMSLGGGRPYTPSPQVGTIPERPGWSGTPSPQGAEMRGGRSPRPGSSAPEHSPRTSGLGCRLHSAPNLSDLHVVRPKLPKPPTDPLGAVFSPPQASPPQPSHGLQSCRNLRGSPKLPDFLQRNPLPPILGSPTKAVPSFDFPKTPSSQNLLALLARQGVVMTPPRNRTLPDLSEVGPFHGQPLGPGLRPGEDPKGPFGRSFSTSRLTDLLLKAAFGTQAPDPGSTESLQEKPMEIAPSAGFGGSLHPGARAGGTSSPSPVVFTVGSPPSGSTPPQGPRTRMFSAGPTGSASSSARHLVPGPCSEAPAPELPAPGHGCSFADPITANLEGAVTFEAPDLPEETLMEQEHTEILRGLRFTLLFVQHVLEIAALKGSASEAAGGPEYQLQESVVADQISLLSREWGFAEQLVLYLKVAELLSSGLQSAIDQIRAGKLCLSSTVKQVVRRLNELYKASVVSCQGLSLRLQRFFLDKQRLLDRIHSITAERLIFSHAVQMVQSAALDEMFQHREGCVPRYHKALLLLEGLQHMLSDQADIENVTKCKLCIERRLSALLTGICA

[7] = tested on: Cysteinyl leukotriene receptor 2; test: Leukotriene, Cysteinyl CysLT2 Eurofins-Panlabs radioligand binding assay; settings: Homo sapiens; Compound concentration 10.0 uM

COCCOc1nc(-c2ccc(Cl)nc2)nc2c1CN(C(=O)c1ncn3ccccc13)CC2 [THPP-1]
inactive: residual activity [1] 92% | residual activity [2] 92% | residual activity [3] 92% | residual activity [4] 92% | residual activity [5] 92% | residual activity [6] 92% | inhibition [7] 8%

Source: ChEMBL document CHEMBL4507293 (2021)
